Experimental data published in patent publication US20240216332A1, “METHOD AND PHARMACEUTICAL COMPOSITION FOR TREATING MYOPIA” (GRAND PHARMA (CHINA) CO., LTD., priority 2021, published 2024).

System: form deprivation myopia guinea pigs
Test: Sorbinil and Zopolrestat in form deprivation myopia model, Example 9
Details: FD, subconjunctival injection 100 μl once daily for 2 weeks; Sorbinil 100 μM, Zopolrestat 1 mM

SMILES: O=C(O)Cc1nn(Cc2nc3cc(C(F)(F)F)ccc3s2)c(=O)c2ccccc12 [Zopolrestat]
- therapeutic effect on myopia: no therapeutic effect on myopia
